Assay results reported in patent EP0187057A1, “2-Phenyl-isopropyl-allophanate, preparation and pharmaceutical application” (priority 1984, dated 1986).

System: crises pentétrazoliques
Assay: Convulsant and lethal effects of subcutaneous pentetrazol (125 mg/kg)
Assay type: in vivo
Conditions: index thérapeutique absolu, souris
Description: Propriétés anticonvulsivantes : • On a effectué, pour déterminer ces propriétés anticonvulsivantes, des expérimentations sur le SCS 289 en procédant à des essais de protection : • - chez le lapin soumis à une transélectrification cranienne génératrice de crises épileptiformes de type "grand mal" ou recevant une infusion veineuse de pentétrazol provoquant l'apparition de myoclonies palpébrales; • - chez la souris recevant, par voie sous-cutanée des doses croissantes de pentétrazol entraînant convulsions et mort ou soumise à une transélectrification transcranienne à basse fréquence génératrice de crises psychomotrices.
Pour déceler une synergie d'action antagoniste vis-à-vis des effets convulsivants et létaux du pentétrazol injecté par voie sous-cutanée chez la souris à la dose de 125 mg/kg, on a déterminé avec plus de précision la DE50 du SCS 289 et on a recherché si l'association avec le SCS 35 apportait un surcroit appréciable d'activité.
On n'a retenu comme significative que la protection à l'égard des effets létaux observés sur 24 heures.

## CCCC(CCC)C(=O)O [Valproate de sodium]
  DL50/DE50 /pentétrazol: 6,9
